Results taken from PubChem BioAssay AID1468 (National Center for Advancing Translational Sciences (NCATS), 2008).
The list shows a part of the results, in another mix than the full data. Records with an inconclusive call do not appear. Active and inactive are the calls of the source. Calls come from the whole dose curve; as a rule, active = well fitted inhibition curve with a large enough effect; inconclusive = small, poorly fitted or top-dose-only effect, or effect the other way; inactive = flat fitted curve, though single readings scatter.

Protein sequences, listed by entry. Tags and fused reporters are not part of them. Residues count along the entry.
UniProt P10636, 561-689 P618L limits assumed: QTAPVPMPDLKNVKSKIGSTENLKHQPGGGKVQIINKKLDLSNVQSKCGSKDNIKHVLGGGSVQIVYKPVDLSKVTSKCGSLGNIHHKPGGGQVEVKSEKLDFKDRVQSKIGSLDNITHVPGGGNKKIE

Target: Microtubule-associated protein tau (Homo sapiens) (UniProt P10636)
Assay: qHTS for Inhibitors of Tau Fibril Formation, Fluorescence Polarization; note: nearly all actives have a fitted effect of over 55% in size
Details: K18 P301L tau heparin fibrillization, Alexa594 FP, 6 h; at 57.7 µM (top of the series)
Excerpt: NIH Molecular Libraries Probe Production Network [MLPCN]
NIH Chemical Genomics Center [NCGC]
Assay Provider: Carlo Ballatore, University of Pennsylvania
The microtubule-associated protein tau is an abundant protein in the axons of neurons that stabilizes microtubules. With its ability to modulate microtubule dynamics, tau contributes directly or indirectly, to key structural and regulatory cellular functions. Particularly important is the influence tau exerts on axonal transport, which allows signaling molecules, trophic factors and other essential cellular constituents to travel along the axons. Under pathological conditions, tau becomes sequestered into insoluble aggregates called neurofibrillary tangles. This phenomenon is believed to have pathological consequences by promoting axonal transport deficits that ultimately lead to synaptic dysfunction and neuronal loss. To identify inhibitors of tau aggregation, a heparin-induced tau fibril formation assay was used that employed a recombinantly expressed fragment of tau, K18 (Q242-E372), bearing a P301L mutation (Gustke et al. 1994; Hong et al. 1998).
Gustke, N., B. Trinczek, et al. (1994). "Domains of tau protein and interactions with microtubules." Biochemistry 33(32): 9511-22.
Hong, M., V. Zhukareva, et al. (1998).
Li, W. and V. M. Lee (2006). "Characterization of two VQIXXK motifs for tau fibrillization in vitro." Biochemistry 45(51): 15692-701.
von Bergen, M., S. Barghorn, et al. (2001). "Mutations of tau protein in frontotemporal dementia promote aggregation of paired helical filaments by enhancing local beta-structure." J Biol Chem 276(51): 48165-74.
NCGC Assay Protocol Summary:
For screening, 2 uL/well human K18 P301L (15 uM unlabeled and 0.24 uM Alexa 594-labeled tau final concentrations) in reagent buffer (100 mM sodium acetate pH 7) was dispensed into black solid 1536-well plates (Grenier) using a solenoid-based dispenser. Following transfer of 23 nL compound or DMSO vehicle by a pin tool, 2 uL/well heparin (20 uM final concentration) in reagent buffer was added and the plate centrifuged 15 s at 1000 RPM. Plates were incubated 6 hr at 37 C and then 1 uL/well ThT (30 uM final concentration) was added. After a 1 hr ambient incubation, the plates were read by an Envision (Perkin Elmer) to monitor Alexa 594 FP (555 nm excitation and 632 nm emission).
Keywords: NIH Roadmap, MLPCN, MLI, MLSMR, NCGC, qHTS, tau, tauopathies, Alzheimer's disease, fibril, neurodegeneration, aggregation
% is set by controls: 0 for no effect and ±100 for the full control effect.

Row | Structure (SMILES) | activity, negative = inhibition
1 | CP(=O)(Oc1ccccc1)OC(c1ccccc1)C(F)(F)F (centres undefined) | inactive: -6.19%
2 | CP(=O)(Nc1ccc(SC(F)(F)F)cc1)Oc1ccc(Cl)cc1 (centres undefined) | inactive: -3.79%
3 | Cc1cccc(C)c1OP(C)(=O)Nc1ccc(SC(F)(F)F)cc1 (centres undefined) | inactive: -3.42%
4 | Cc1cc(C)cc(OP(C)(=O)Nc2ccc(SC(F)(F)F)cc2)c1 (centres undefined) | inactive: -13.6%
5 | CP(=O)(NC(=O)Nc1ccccc1)Oc1ccccc1 (centres undefined) | inactive: -11.7%
6 | CCOP(C)(=S)SCC(=O)NC(C)C(=O)O (centres undefined) | inactive: 3.65%
7 | CCOC(=O)c1ccc(NP(C)(=O)Oc2ccc(OC)cc2)cc1 (centres undefined) | inactive: 3.53%
8 | CP(=O)(Nc1ccccn1)Oc1ccc(Cl)cc1 (centres undefined) | inactive: -2.02%
9 | CP(=S)(Nn1cnnc1)Oc1ccccc1 (centres undefined) | inactive: 0.162%
10 | COc1ccccc1OP(C)(=O)Nc1ccccc1 (centres undefined) | inactive: 3.47%
11 | CP(=O)(Nc1ccccc1Br)Oc1ccccc1 (centres undefined) | inactive: 0.176%
12 | Cc1cccc(C)c1OP(C)(N)=O (centres undefined) | inactive: -4.03%
13 | CC(C)(C)c1ccc(OP(C)(=O)Nc2ccc(SC(F)(F)F)cc2)cc1 (centres undefined) | inactive: 8.96%
14 | O=[N+]([O-])c1ccc2c(c1)C=Nc1ccccc1O2 | inactive: 3.93%
15 | CCOC(=O)c1ccc(NP(C)(=O)Oc2ccccc2)cc1 (centres undefined) | inactive: 6.76%
16 | Cc1ccc(NP(C)(=O)Oc2ccccc2)c(C)c1 (centres undefined) | inactive: -0.354%
17 | COc1ccccc1OP(C)(=O)Nc1ccc(C)cc1 (centres undefined) | inactive: 8.6%
18 | COc1ccc(OP(C)(=O)Nc2cccc(F)c2)cc1 (centres undefined) | inactive: -4.06%
19 | COc1ccccc1OP(C)(=O)Nc1cc(Cl)ccc1C (centres undefined) | inactive: 2.01%
20 | Cc1cc(C)cc(OP(C)(N)=O)c1 (centres undefined) | inactive: -13.1%
21 | CCN(CC)CCCOC(=O)C(O)(c1ccccc1)c1ccccc1 | inactive: -13.6%
22 | COc1ccccc1OP(C)(=O)Nc1cccc(Br)c1 (centres undefined) | inactive: 4.06%
23 | Cc1cc(C)cc(OP(C)(=O)Nc2ccc(C)cc2C)c1 (centres undefined) | inactive: -0.625%
24 | CCOC(=O)c1ccc(NP(C)(=O)Oc2cc(C)cc(C)c2)cc1 (centres undefined) | inactive: 8.02%
25 | Cc1cc(C)cc(OP(C)(=O)Nc2ccccn2)c1 (centres undefined) | inactive: 2.47%
26 | CP(=O)(Nc1cccc(Br)c1)Oc1ccccc1 (centres undefined) | inactive: -13.4%
27 | Cc1ccc(C)c(NP(C)(=O)Oc2ccccc2)c1 (centres undefined) | inactive: -3.91%

Row | Structure (SMILES) | activity, negative = inhibition
28 | O=[N+]([O-])OCC(CO[N+](=O)[O-])(CO[N+](=O)[O-])CO[N+](=O)[O-] | inactive: 1.09%
29 | CC1=NCCc2c1[nH]c1ccccc21.O=[N+]([O-])c1cc([N+](=O)[O-])c(O)c([N+](=O)[O-])c1 | inactive: 5.87%
30 | O=[N+]([O-])c1cc([N+](=O)[O-])c(Nc2nnnn2CCO)c([N+](=O)[O-])c1 | inactive: -1.71%
31 | CN1CCCCC1COC(=O)C1(O)c2ccccc2CCc2ccccc21 (centres undefined) | inactive: -10.8%
32 | COc1ccccc1OP(C)(=O)Nc1c(C)cccc1C (centres undefined) | inactive: 7.16%
33 | CCCOc1ccc(NP(C)(=O)Oc2ccc(Cl)cc2)cc1 (centres undefined) | inactive: 3.86%
34 | CP(=O)(Nc1ccc(SC(F)(F)F)cc1)Oc1ccccc1 (centres undefined) | inactive: -2.99%
35 | O=[N+]([O-])c1cc([N+](=O)[O-])c(-n2nnc3ccccc32)c([N+](=O)[O-])c1 | inactive: 5.42%
36 | Cc1nc2ccc3ccccc3c2s1.O=[N+]([O-])c1cc([N+](=O)[O-])c(O)c([N+](=O)[O-])c1 | inactive: 5.95%
37 | CP(=O)(Nc1ccc(SC(F)(F)F)cc1)Oc1ccc(F)cc1 (centres undefined) | inactive: -5.59%
38 | CCOP(C)(=S)SCC(=O)NC(C)(CC)C(=O)O (centres undefined) | inactive: 0.656%
39 | CP(=O)(Nc1ccc2c(c1)OCCO2)Oc1ccccc1 (centres undefined) | inactive: 3.12%
40 | Cc1ccccc1NP(C)(=O)Nc1ccccc1C | inactive: 1.64%
41 | CCN(CCCl)Cc1ccccc1C | inactive: 2.67%
42 | COc1ccc(OP(C)(=O)Nc2cccc(Br)c2)cc1 (centres undefined) | inactive: -2%
43 | COc1ccc(NP(C)(=O)Oc2ccccc2OC)cc1 (centres undefined) | inactive: 1.29%
44 | CN(C)CCOC(=O)C(O)(c1ccccc1)C1CCCCC1 (centres undefined) | inactive: 4.15%
45 | Cc1cc(-c2cccc3ccccc23)c(C)cn1.O=[N+]([O-])c1cc([N+](=O)[O-])c(O)c([N+](=O)[O-])c1 | inactive: -4.04%
46 | O=[N+]([O-])c1ccc(OP2(=O)COCCO2)cc1 (centres undefined) | inactive: 5.18%
47 | COc1ccc(OP(C)(=O)Nc2ccc(SC(F)(F)F)cc2)cc1 (centres undefined) | inactive: 4.01%
48 | CCOC(=O)c1ccc(NP(C)(=O)Oc2ccc(F)cc2)cc1 (centres undefined) | inactive: -4.37%
49 | CCN(CC)CCCOC(=O)C(O)(c1ccccc1)C1CCCCC1 (centres undefined) | inactive: -3.53%
50 | CCCCCOc1ccc(NP(C)(=O)Oc2ccc(Cl)cc2Cl)cc1 (centres undefined) | inactive: 11.6%
51 | CP(=O)(Nc1ccccc1)Oc1ccc(F)cc1 (centres undefined) | inactive: -1.54%
52 | CC(C)c1ccc(OP(C)(=O)Nc2ccc(SC(F)(F)F)cc2)cc1 (centres undefined) | inactive: 9.7%
53 | CP(=O)(Nc1ccccc1F)Oc1ccccc1 (centres undefined) | inactive: 1.24%
54 | O=C(OCCN1CCN(CCOCc2ccccc2)CC1)C(O)(c1ccccc1)c1ccccc1 | inactive: 8.96%

Row | Structure (SMILES) | activity, negative = inhibition
55 | CN(C)CCOC(=O)C(O)(c1ccccc1)C1CCCC1 (centres undefined) | inactive: -0.621%
56 | COc1ccc(OP(C)(=O)Nc2ccccn2)cc1 (centres undefined) | inactive: -8.77%
57 | Cc1c(NP(C)(=O)Oc2ccc(C(C)C)cc2)c(=O)n(-c2ccccc2)n1C (centres undefined) | inactive: -1.04%
58 | O=[N+]([O-])c1cc([N+](=O)[O-])c(Nc2ccccn2)c([N+](=O)[O-])c1 | inactive: 6.24%
59 | CCc1ccc(OP(C)(=O)O)cc1 | inactive: -5.26%
60 | COc1ccccc1OP(C)(=O)Nc1ccc(C)cc1C (centres undefined) | inactive: -14.8%
61 | CP(=O)(Nc1ccccn1)Oc1ccccc1 (centres undefined) | inactive: 4.85%
62 | Cc1cc(C)cc(OP(C)(=O)Nc2cccc(C(F)(F)F)c2)c1 (centres undefined) | inactive: -2.57%
63 | COc1ccc(OP(C)(=O)Nc2ccccc2Br)cc1 (centres undefined) | inactive: 2.67%
64 | COc1ccccc1OP(C)(=O)Nc1ccc(C)c(C)c1 (centres undefined) | inactive: -10.7%
65 | CP(=O)(Nc1ccc(Cl)cc1Cl)Oc1ccccc1 (centres undefined) | inactive: -6.38%
66 | CP(=O)(OCCOc1ccccc1)OCCOc1ccccc1 | inactive: 0.641%
67 | CP(=O)(OC12CC3CC(CC(C3)C1)C2)OC12CC3CC(CC(C3)C1)C2 | inactive: 0.116%
68 | CCOC(=O)c1ccc(NP(C)(=O)Oc2ccc(Cl)cc2)cc1 (centres undefined) | inactive: 1.96%
69 | COc1ccc(OP(C)(=O)Nc2ccc(Br)cc2)cc1 (centres undefined) | inactive: 5.82%
70 | CCN(CC)CC(O)COC(=O)C(O)(c1ccccc1)C1CCCCC1 (centres undefined) | inactive: -2.72%
71 | CCc1ccc(OP(C)(=O)Nc2cccnc2)cc1 (centres undefined) | inactive: 11.2%
72 | CP(=O)(Oc1ccccc1)N1CCOC1=O (centres undefined) | inactive: 0.0156%
73 | O=C(OCCCN1CCCC1)C(O)(c1ccccc1)C1CCCCC1 (centres undefined) | inactive: 7.87%
74 | OCCSCCO | inactive: 2.11%
75 | COc1ccccc1OP(C)(=O)Nc1c(C)n(C)n(-c2ccccc2)c1=O (centres undefined) | inactive: 2.3%
76 | CP(=O)(Nc1ccc(Cl)cc1)Oc1ccc(F)cc1 (centres undefined) | inactive: -0.996%
77 | COc1ccccc1OP(C)(=O)Nc1ccccc1Br (centres undefined) | inactive: 0.429%
78 | CC(C)(C)c1ccc(OP(C)(=O)O)cc1 | inactive: 3.23%
79 | CN(C)C(=O)c1c([N+](=O)[O-])cc([N+](=O)[O-])cc1[N+](=O)[O-] | inactive: -7.2%
